Patent publication US11485744B2, “High penetration prodrug compositions of antimicrobials and antimicrobial-related compounds” (priority 2009, dated 2022)

Conditions: mouse, in vivo
Protocol: In vivo rates of penetration of HPPs of beta-lactam antibiotics through skin and blood-brain barrier of intact hairless mice were studied. […] After 2 hours, the mice were killed. 5 ml of methanol was added to 1 g of homogenized blood, liver, kidney, muscle, or brain. The samples were centrifuged for 5 min and analyzed by HPLC (Table 2).

## CCN(CC)CCOC(=O)C1N2C(=O)C(NC(=O)c3c(OC)cccc3OC)C2SC1(C)C.Cl (stereo not shown) [methicillin-DEE, 6-(2,6-dimethoxybenzamido)penicillinic acid 2-diethylaminoethyl ester hydrochloride]
  Amount of parent drug found in Blood: 27 ± 6 µg/g
  Amount of parent drug found in Kidney: 15 ± 5 µg/g
  Amount of parent drug found in Liver: 15 ± 5 µg/g
  Amount of parent drug found in Muscel: 20 ± 5 µg/g
